The subject of experiment [1] is BD2 domains (BRD2-BD2, BRD3-BD2, BRD4-BD2). Description: SPR binding, stated for the BD2 domains together. Further details: species or system human. For orientation: SPR reads the build-up and loss of mass on a sensor chip optically.
Experiment [2] concerns the target SMARCA4 (Homo sapiens, UniProt P51532). The experiment in a line: biochemical. The note with it: read-out: Percent Control SMARCA4.

Protein sequences, listed by entry. Tags and fused reporters are not part of them.
UniProt P51532, whole entry: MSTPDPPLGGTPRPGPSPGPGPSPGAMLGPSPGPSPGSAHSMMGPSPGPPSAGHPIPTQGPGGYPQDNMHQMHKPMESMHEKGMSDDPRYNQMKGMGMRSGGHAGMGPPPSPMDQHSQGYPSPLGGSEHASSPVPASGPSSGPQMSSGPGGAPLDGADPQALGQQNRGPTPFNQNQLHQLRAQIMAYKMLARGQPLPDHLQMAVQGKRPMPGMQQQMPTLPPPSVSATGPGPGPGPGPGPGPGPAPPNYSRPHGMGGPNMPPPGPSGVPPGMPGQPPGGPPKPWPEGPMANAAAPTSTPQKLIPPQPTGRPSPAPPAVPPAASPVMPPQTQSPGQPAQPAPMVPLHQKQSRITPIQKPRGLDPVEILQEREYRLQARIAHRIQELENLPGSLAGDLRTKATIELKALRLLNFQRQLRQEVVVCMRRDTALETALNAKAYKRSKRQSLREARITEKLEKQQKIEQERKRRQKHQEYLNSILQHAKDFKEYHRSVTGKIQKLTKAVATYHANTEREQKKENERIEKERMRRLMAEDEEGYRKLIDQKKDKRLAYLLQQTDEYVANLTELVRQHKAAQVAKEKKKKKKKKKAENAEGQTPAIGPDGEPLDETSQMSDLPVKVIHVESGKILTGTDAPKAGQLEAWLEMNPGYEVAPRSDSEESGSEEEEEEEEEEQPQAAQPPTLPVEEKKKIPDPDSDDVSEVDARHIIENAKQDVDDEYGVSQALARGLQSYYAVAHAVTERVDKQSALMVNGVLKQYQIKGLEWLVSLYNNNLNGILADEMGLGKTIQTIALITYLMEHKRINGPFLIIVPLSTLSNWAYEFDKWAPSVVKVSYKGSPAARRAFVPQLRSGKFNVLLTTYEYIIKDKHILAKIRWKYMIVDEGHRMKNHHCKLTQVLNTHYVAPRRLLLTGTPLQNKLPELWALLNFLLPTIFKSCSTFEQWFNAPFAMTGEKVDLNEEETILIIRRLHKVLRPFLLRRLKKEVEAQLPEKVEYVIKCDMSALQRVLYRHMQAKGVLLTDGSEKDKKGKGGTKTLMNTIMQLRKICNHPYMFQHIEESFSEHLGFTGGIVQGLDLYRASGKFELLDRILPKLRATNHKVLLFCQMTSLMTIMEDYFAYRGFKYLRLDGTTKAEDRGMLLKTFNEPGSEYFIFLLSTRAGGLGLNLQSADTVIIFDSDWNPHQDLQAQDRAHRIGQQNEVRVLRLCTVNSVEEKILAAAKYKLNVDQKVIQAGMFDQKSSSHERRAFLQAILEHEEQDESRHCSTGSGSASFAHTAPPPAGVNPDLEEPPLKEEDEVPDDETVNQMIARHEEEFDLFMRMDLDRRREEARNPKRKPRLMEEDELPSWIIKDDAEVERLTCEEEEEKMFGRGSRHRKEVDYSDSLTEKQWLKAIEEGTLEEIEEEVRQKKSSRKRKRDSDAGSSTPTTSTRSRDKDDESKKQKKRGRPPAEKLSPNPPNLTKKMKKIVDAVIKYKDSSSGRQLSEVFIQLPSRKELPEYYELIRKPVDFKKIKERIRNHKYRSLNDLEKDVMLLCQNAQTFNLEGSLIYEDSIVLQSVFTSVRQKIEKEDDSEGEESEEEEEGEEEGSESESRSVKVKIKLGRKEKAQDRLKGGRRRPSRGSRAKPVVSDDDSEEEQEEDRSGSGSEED

As for `CC[C@H](C)[C@H](NC(=O)[C@H](CCCNC(=N)N)NC(=O)[C@H](CCCCNC(C)=O)NC(=O)[C@H](CCCNC(=N)N)NC(=O)[C@H](CC(C)C)NC(=O)[C@@H]1CSCC(=O)N[C@@H](Cc2c[nH]c3ccccc23)C(=O)N[C@@H](CCCCNC(C)=O)C(=O)NCC(=O)N[C@@H](Cc2ccc(O)cc2)C(=O)N[C@@H](CC(C)C)C(=O)N1)C(=O)N[C@@H](CCC(N)=O)C(=O)N[C@@H](CCCNC(=N)N)C(=O)N[C@H](C(=O)N[C@@H](Cc1ccc(O)cc1)C(=O)N[C@@H](CC(N)=O)C(N)=O)[C@@H](C)O` [4.2C], the “selectivity for BD2 domains over BD1 domains (in words)” value in experiment [1] is “significant selectivity”. For the same molecule, the remaining activity at 1 µM in experiment [2] turned out to be 63%.

Source of the values: PMC7604503, “Cyclic peptides can engage a single binding pocket through highly divergent modes” (Proceedings of the National Academy of Sciences of the …, 2020).
